Measurements reported in patent publication US20190010203A1 (ADEPTHERA, published 2019).

By UniProt entry, the sequences of proteins in these tests, tags left out. Residues count along the entry.
UniProt Q16602, 23-461 limits assumed, chain 1 of 2: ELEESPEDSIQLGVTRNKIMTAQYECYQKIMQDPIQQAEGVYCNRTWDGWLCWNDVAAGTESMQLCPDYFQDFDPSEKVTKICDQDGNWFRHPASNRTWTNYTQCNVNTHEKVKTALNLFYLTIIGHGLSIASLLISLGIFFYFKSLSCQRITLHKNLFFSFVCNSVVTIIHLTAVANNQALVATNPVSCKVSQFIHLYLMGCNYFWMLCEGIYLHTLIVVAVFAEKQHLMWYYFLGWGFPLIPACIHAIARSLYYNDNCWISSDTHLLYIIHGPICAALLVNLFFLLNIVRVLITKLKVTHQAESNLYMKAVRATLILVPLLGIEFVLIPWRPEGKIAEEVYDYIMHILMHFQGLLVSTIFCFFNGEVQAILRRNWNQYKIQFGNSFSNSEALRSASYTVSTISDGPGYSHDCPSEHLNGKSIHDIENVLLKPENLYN
CLR/RAMP3 receptor, UniProt O60896, 24-148 limits assumed, chain 2 of 2: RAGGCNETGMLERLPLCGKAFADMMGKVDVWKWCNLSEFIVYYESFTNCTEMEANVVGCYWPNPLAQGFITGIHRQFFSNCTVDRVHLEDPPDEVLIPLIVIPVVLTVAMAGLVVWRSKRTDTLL

Target: CLR/RAMP3 receptor (UniProt Q16602 23-461; O60896 24-148, limits assumed)
Assay: cell-based or functional assay

B1: SEQ ID NO: 28 (peptide)
peptide: KGCRFGTCTVQKLAHQIYQFTDKDKDNSAPVDPSSPHSY
modifications: N-terminal miniPEG; palmitoyl on Lys 1 side chain, K(PAL); C-terminal amide
In the case of B1, the “EC50 (nM), CLR/RAMP3 cAMP assay” value is reported as 0.06 nM.
